Where “and” joins values, the source holds several entries; their conditions need not be identical. Identical values can stand only once.
What was measured:
[1] = tested on: HCV subgenomic RNA replicon in Huh7 cells; experiment: HCV subgenomic RNA replicon assay (Replicon Assay), TaqMan RT-PCR of replicon RNA after 48 h treatment; type: cell-based, hepatitis C virus (HCV); conditions: for Inhibition of replicon RNA accumulation: 48 hour treatment; for IC50 INF: interferon used individually, HCV replicon RNA accumulation, 48 h, response-surface fit
Description: The Replicon Assay measures the amount of HCV subgenomic RNA (replicon RNA) remaining in replicon cells (Lohman et al. Science 285:110-113 (1999)) after two days of drug treatment relative to the amount of replicon RNA in untreated cells. In this assay, the potency of compounds as HCV antiviral drugs is directly proportional to the level of inhibition of replicon RNA accumulation.
The Replicon Assay employing a cell line containing the self-replicating HCV subgenomic RNA (replicon) is described in Lohmann et al. Science 285:110-113 (1999). The Genbank accession number for the sequence of the replicon used in the experiments described herein is listed in this reference as AJ242654. This paper discloses methods for in vitro transcription of RNA from the replicon cDNA, transfection of the replicon RNA into Huh7 cells by electroporation, and selection of cells containing the replicon RNA using the antibiotic G418. Huh7 cells are a hepatoma cell line obtained from Dr. William Mason at Fox Chase Cancer Research Center (Philadelphia). These cells are publicly available from Fox Chase, and have been extensively described in the scientific literature (Nakabayashi at al. Cancer Res. 42:3858-3863 (1982)). In the experiments described herein, all of the template DNA is removed from the in vitro transcribed replicon RNA preparation prior to electroporation of this RNA into Huh7 cells by multiple treatment with DNase (three sequential treatments).
The Replicon Assay is performed as described in detail below. Briefly, Replicon cells are placed in 96 well trays at a density of 10,000 cells per well and incubated 37° C. The cells are incubated in DMEM ([…]) supplemented with 10% fetal bovine serum, glutamine, nonessential amino acids, and the antibiotic G418 (0.25 mg/ml). […] Each compound is tested at six to eight different concentrations. […] Each HCV serine protease inhibitor concentration is tested without any added interferon, as well as with the addition of six to eight different interferon doses. Similarly, interferon is tested without any added HCV serine protease inhibitor. After a 48-hour incubation with the compounds, the medium is removed from the plates, and total cellular RNA is extracted from the cells using the RNeasy-96 kit manufactured by Qiagen Inc. (Valencia, Calif.). This RNA is then analyzed by quantitative RT-PCR, or TaqMan® (Applied Biosystems, Foster City Calif.). The TaqMan® RT-PCR target is the neomycin resistance gene in the replicon RNA. The plates are configured so that there are 5 replicates of each drug treatment sample, and 16 replicates of the untreated samples. This permits greater statistical confidence in the quantitative RT-PCR data.
Analysis of the Replicon Assay data yields two values that are useful in assessing the potency of potential HCV antiviral agents.

[2] = tested on: replicon cells (glyceraldehyde-3-phosphate dehydrogenase (GAPDH) mRNA levels); experiment: TaqMan quantitative RT-PCR of GAPDH mRNA levels in treated versus untreated replicon cells (cytotoxicity measure); conditions: treated versus untreated cells in the Replicon Assay
Description: Inflamation Research. […] It is assumed that the level of GAPDH mRNA, which is a constitutively expressed housekeeping gene, is the same in all viable cells. […] Thus, it is postulated, as done by others using TaqMan® technology to determine the levels of particular mRNAs in human cells, that GAPDH mRNA levels are proportional to viable cell numbers (VCN) in any given sample, with the relationship of VCN=2^̂(40−CtGAPDH mRNA). The VCN is computed for each of the Replicon Assay sample wells, and then we divide the HCV Replicon RNA copy number for a specific well by the VCN for that well. Once computed, this ratio is used instead of the HCV copy number to compute inhibition (“Avg. Inh using ratio”; FIG. 14A). […] In the Replicon Assay, it is assumed that the measured inhibition of HCV RNA replicon accumulation is the sum of the actual inhibition of HCV RNA replicon accumulation and the apparent inhibition of HCV RNA replicon accumulation due to cytoxicity. […] Thus, the true anti-HCV activity of a compound in the Replicon Assay corrected for general cytotoxicity can be estimated by dividing the number of HCV replicon RNA molecules measured in each sample by the VCN, thus normalizing to the number of viable cells in each sample. […] In FIG. 14A, “Avg.

interferon-alpha 2B
Inhibition of replicon RNA accumulation ([1]; interferon-alpha 2B 0.0096 U alone (Compound CU 0 μM)): 12% | Inhibition of replicon RNA accumulation ([1]; interferon-alpha 2B 0.048 U alone (Compound CU 0 μM)): 8% | Inhibition of replicon RNA accumulation ([1]; interferon-alpha 2B 0.24 U alone (Compound CU 0 μM)): 16% | Inhibition of replicon RNA accumulation ([1]; interferon-alpha 2B 1.2 U alone (Compound CU 0 μM)): 38% | Inhibition of replicon RNA accumulation ([1]; interferon-alpha 2B 6 U alone (Compound CU 0 μM)): 73% | Inhibition of replicon RNA accumulation ([1]; interferon-alpha 2B 30 U alone (Compound CU 0 μM)): 89% | interferon-alpha 2B IC30 ([1]; interferon-alpha 2B alone, replicon RNA accumulation 48 h): 2.05 µM | interferon IC50 ([1]; interferon-alpha 2B as single drug treatment, initial experiment, replicon RNA accumulation 48 h): 2.19 U

IFN beta: "interferon beta"
IC50 INF [1]: 1.82 units

interferon alpha-2B
cytotoxicity (GAPDH mRNA levels, TaqMan RT-PCR) [2]: no significant cytotoxicity

IFN alpha-2B: "interferon alpha-2B (Schering-Plough)"
IC50 INF [1]: 2.36 units and 2.53 units and 3.06 units and 1.22 units and 2.05 units
